This note sets out measurements from PubChem BioAssay AID376 (PDSP, 2006).

Amino acid sequences for entries named in this document (tags omitted). A change or cut given only in a name is not applied to a line headed by its entry.
UniProt Q12809: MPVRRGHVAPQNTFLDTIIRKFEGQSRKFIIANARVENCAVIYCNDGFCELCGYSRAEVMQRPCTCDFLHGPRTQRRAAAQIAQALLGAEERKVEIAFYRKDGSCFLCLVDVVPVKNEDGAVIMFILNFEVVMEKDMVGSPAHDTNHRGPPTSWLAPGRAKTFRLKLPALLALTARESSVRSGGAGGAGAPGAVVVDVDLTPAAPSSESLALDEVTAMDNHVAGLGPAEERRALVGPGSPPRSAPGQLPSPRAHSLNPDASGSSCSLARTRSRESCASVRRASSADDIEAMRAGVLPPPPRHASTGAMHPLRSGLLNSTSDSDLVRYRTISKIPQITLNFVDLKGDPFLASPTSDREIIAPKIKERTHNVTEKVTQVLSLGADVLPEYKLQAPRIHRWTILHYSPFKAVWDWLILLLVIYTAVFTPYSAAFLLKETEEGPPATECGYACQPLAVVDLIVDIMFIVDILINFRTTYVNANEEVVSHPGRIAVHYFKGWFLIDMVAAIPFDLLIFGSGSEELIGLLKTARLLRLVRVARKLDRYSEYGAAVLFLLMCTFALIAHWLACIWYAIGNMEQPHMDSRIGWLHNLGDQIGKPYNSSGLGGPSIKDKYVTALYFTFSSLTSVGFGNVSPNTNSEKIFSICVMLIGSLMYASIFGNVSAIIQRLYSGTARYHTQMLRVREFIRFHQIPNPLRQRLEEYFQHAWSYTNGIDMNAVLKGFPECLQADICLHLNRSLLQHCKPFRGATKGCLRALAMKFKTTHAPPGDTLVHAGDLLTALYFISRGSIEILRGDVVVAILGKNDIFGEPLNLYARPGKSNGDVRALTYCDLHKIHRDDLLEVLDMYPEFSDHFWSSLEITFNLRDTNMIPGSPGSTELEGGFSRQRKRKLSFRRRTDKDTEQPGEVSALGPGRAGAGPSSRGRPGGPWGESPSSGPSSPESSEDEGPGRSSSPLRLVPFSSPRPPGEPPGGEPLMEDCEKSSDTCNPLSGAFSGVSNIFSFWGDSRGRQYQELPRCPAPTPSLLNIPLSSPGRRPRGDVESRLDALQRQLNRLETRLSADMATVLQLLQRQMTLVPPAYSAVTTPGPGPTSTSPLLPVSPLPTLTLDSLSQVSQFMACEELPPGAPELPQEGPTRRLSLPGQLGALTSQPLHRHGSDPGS

The entries are a selection whose mix differs from that of the whole data set. The source made the active and inactive calls. Rule as the data show it: active = hERG blockade below about -20% or above about 20%; inactive = in between.

This experiment deals with Voltage-gated inwardly rectifying potassium channel KCNH2 (Homo sapiens) (UniProt Q12809). Briefly: modulators of KCNH2 ion channel function, cellular (AID 376).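 Also: 0% = buffer alone and 100% = reference blocker.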 As to conditions: hERG-expressing cells, channel activity single-concentration screen; concentration not given here. In general terms: Block of hERG is tested as a sign of cardiac risk.
Consider `O=[N+]([O-])c1ccc(C[As](=O)(O)O)cc1`, for which the hERG blockade is active: -27.7%. Then `CN1CCCC(OC(=O)C(c2ccccc2)c2ccccc2)C1` (stereo not given), with inactive: 0.0731%; and `[N-]=[N+]=NCC(O)CN=[N+]=[N-]` (stereo not given), with inactive: -2.72%; and `C(Cc1nn[nH]n1)c1nn[nH]n1`, with inactive: -2.08%. To `O=C(O)C(O)c1ccc([As](=O)(O)O)cc1` (stereo not given) belongs inactive: -7.66%; to `O=C(CO)Nc1ccc([As](=O)(O)O)cc1`, inactive: -16.7%; to `[N-]=[N+]=Nc1ccc([As](=O)(O)O)cc1`, inactive: 0.946%. To `O=C(CC(=O)c1ccccc1)OC1CN2CCC1CC2` (stereo not given) belongs active: -20%; to `NS(=O)(=O)Cc1ccc([As](=O)(O)O)cc1`, inactive: -9%; to `O=[As](O)(O)c1ccc([As](=O)(O)O)cc1`, inactive: -2.8%. On to `CC(O)COc1ccc([As](=O)(O)O)cc1N` (stereo not given), for which the hERG blockade is inactive: -10.4%. As to `NCCC(N)CSP(=O)(O)O` (stereo not given), the hERG blockade was inactive: 16.6%.

Take `[N-]=[N+]=NCC(N)=O`: the hERG blockade was inactive: 3.64%. To `O=[As]c1ccc(S(=O)(=O)NCCO)cc1` (stereo not given) belongs inactive: -19.7%; to `NC(=O)Nc1cc([As](=O)(O)O)cc(I)c1O`, inactive: 11.5%.
